From publication PMC11093611 (The Journal of Clinical Investigation, 2024)

Target: recombinant TFRC (UniProt P02786 1-760)
Assay: SPR; rCf48 and recombinant TFRC; which one was immobilised is not stated
Settings: both partners purified

Kd: 571 nM
B1: recombinant mouse Cf48 (rCf48) lacking the signal peptide (secreted form) (peptide, UniProt Q3UR78 29-90, looked up)
chain: EPATGSAVPAQSRPCVDCHAFEFMQRALQDLRKTAYSLDARTETLLLQAERRALCACWPAGR
notes: Mouse Cf48 (Gm1673; C4orf48 in humans), secreted form lacking the signal peptide; also called recombinant Cf48 peptide; source: recombinant
